Results as given in patent publication US3956398A, “Bis-monoperoxyacetals and -ketals” (dated 1976).

Question: For `CC(OOC(C)(C)C)OC(C)OOC(C)(C)C` (centres unmarked), which “Curing Half-Life (320°F.)” value (320°F., amount of peroxide used differs by line (1.26-2.74 parts)) is on record?
Answer: 4.1 min

Question: And the “Curing Half-Life, 330°F. half-life” value (330°F., amount of peroxide used differs by line (4.2-6.4 parts))?
Answer: 2.1 min and 1.4 min

“And” between values parts separate entries of the source, which are not always exact repeats. Equal values may be shown once.
